# Source: ChEMBL document CHEMBL1145378 (J Med Chem, 2007)
# By UniProt entry, the sequences of proteins in these tests, tags left out. Where a name states a change or a piece, a line headed by the entry shows the natural chain unless it says otherwise.
# UniProt Q12809: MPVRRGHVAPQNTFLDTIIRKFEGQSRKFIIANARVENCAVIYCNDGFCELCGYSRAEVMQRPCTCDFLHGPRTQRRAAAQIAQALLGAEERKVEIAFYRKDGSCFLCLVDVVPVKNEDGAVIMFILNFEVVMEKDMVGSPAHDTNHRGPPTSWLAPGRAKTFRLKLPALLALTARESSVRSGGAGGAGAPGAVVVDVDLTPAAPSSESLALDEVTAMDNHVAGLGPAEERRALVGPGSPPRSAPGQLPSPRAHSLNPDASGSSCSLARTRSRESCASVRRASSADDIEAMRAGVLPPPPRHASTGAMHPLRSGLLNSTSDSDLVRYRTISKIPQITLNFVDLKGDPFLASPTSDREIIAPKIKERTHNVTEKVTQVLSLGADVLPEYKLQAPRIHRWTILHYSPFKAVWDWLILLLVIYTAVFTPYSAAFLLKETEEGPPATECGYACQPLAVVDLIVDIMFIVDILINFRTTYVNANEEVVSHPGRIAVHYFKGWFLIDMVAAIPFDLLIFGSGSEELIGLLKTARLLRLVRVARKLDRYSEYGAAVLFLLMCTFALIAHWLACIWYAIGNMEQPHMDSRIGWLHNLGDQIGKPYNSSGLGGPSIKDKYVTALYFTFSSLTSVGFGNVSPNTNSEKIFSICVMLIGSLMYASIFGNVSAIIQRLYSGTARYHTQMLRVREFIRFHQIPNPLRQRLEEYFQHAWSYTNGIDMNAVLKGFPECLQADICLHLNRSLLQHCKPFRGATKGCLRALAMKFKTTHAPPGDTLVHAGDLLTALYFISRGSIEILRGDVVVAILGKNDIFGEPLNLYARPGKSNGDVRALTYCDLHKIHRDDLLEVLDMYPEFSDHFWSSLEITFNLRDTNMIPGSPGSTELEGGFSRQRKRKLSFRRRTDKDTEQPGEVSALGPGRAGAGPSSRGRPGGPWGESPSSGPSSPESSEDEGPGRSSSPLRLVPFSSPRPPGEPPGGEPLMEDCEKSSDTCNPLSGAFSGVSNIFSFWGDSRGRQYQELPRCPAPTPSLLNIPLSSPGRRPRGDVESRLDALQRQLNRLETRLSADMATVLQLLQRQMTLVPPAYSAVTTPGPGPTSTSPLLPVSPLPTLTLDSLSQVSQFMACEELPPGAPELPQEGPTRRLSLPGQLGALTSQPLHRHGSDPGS
# Experiments:
# [1] = target: T1, Voltage-gated inwardly rectifying potassium channel KCNH2 (Homo sapiens, UniProt Q12809)
# hERG (KCNH2) = hERG (KCNH2) (Homo sapiens, UniProt Q12809); test: in vitro; conditions: hek293
# [2] = target: T1, Voltage-gated inwardly rectifying potassium channel KCNH2; remark: listed apart in the source
smiles,measurement,setting,value
CC(C)COCC(CN(Cc1ccccc1)c1ccccc1)N1CCCC1 (stereo not drawn) [BEPRIDIL],Ki,[1],0.291 µM
same,selectivity ratio,hERG (KCNH2),1.6
same,Ki,[2],0.184 µM
